Values of other authors as cited in patent US6423677B1, “Cleaner/degreaser concentrate compositions” (Buckeye International, Inc., priority 1995, dated 2002).

Conditions: in water

In the case of `CCCCOP(=O)(OCCCC)OCCCC`, the “aqueous ambient temperature solubility” value is listed as 0.6 wt. %.
